From patent publication US7888061B2, “Method of stabilising or reactivating a creatinine sensor with a divalent manganese ion” (Radiometer Medical ApS, priority 2005, dated 2011)

The chains behind the UniProt entries cited, without tags or fusion partners. Where a name states a change or a piece, a line headed by the entry shows the natural chain unless it says otherwise.
UniProt P83772: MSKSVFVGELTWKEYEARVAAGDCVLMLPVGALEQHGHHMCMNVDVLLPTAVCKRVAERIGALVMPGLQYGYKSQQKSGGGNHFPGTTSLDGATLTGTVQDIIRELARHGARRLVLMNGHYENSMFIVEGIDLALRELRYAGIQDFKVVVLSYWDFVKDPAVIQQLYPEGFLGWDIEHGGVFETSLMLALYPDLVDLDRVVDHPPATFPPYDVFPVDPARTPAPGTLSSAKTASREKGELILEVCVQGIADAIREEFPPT

Biological target: creatininase (Pseudomonas putida, UniProt P83772)
Procedure: The following examples are intended to illustrate the invention without limiting the invention. In all of the examples, creatininase from Pseudomonas putida was used, obtained from Roche Diagnostics, Mannheim, Germany.
The stability of the creatinine sensor was tested by observing the sensor responses to calibration solutions containing each of the substrates creatinine and creatine.
The calibration solutions were prepared by dissolving about 200 μM creatinine in the Radiometer Calibration Solution 1 S1720 and about 200 μM creatine in the Radiometer Calibration Solution 2 S1730. These solutions were repeatedly introduced into the apparatus one after the other and sensor responses were obtained.
It is convenient to depict the relation between the creatinine sensor response to creatinine relative to the creatinine sensor response to creatine by the following ratio: R=response to creatinine/response to creatine.
If R is constant, the creatininase activity is stable. A declining value for R indicates an overall loss of creatininase activity.
The same experiment as described above was conducted with five creatinine sensors having a significant initial excess of creatininase. In FIG. 4, R is depicted for this experiment.

**Q.** With manganese(II) acetate as the substance, how does the “R = response to creatinine/response to creatine (relative sensor response)” value (2 μM in Rinse Solution for 5½ days after 2¾ days without, two sensors with nearly no initial excess of creatininase, FIG. 3) read?
**A.** The value was “stabilized”.

**Q.** What about the “R = response to creatinine/response to creatine (relative sensor response)” value (10 μM in Rinse Solutions after 18 days without (R had decreased to 0.9), five sensors with significant initial excess of creatininase, FIG. 4) of the same substance?
**A.** Its value is 1.3.

Where two headings read alike, the source gives them in different places.
